The numbers were not newly measured in patent publication US6254883A, “Composition for transdermal delivery of drugs” (Novagent Oy, priority 1996, dated 2001), which cites them from elsewhere.

Each structure is given as a SMILES string.

For this data set the following is noted: in vivo, cited from earlier work.

For the compound `Nc1c2c(nc3ccccc13)CCCC2` [tacrine, 9-amino-1,2,3,4-tetrahydroacridine], the “clearance from the systemic circulation (in words)” value is listed as “rapidly cleared from the systemic circulation”. Also, the “Clearance CL” value (human) was 150 L/h.
